Values quoted from earlier work, collected in patent publication US20020041897A1, “Compositions for sustained release of antineoplastic taxanes, and methods of making and using the same” (priority 2000, published 2002).

Conditions: dogs; large volume single dose without taxol; cited from earlier work

For “polyoxyethylated castor oil [CREMOPHOR EL]”, the toxic effects is listed as “vasodilation, labored breathing, lethargy, hypotension and death”.
